Read-outs that look alike come from different tables or passages of the source.
Experiments:
Test in all cases: Phospho-ERK inhibition, AlphaLISA SureFire Ultra p-ERK 1/2
Lovo pERK = details: read-out: Lovo pERK IC50; Table D-2
Description: (§1) All cancer cell lines (A375, A101D, A2058, RKO, HT29 SK-MEL 30, IPC298, HepG2, HCT-116, Lovo, SW620, SW480, NCI-H358, NCI-H2122, Calu-6, NCIH2087, NCIH1755, NCIH1666 and Mewo) were obtained from ATCC and cultured in RPMI-1640 medium (Gibco) supplemented with 5% heat inactivated fetal bovine serum (FBS, Wisent) at 37° C. under 5% CO2. Cells were maintained in T175 flasks (Greiner). They were passaged by removing the culture medium, washing once in 10 mL of room temperature Phosphate Buffered Saline (PBS; Wisent) and incubating at 37° C. with 2 mL of 0.05% Trypsin (Thermo-Fisher). Trypsin was then inactivated by adding complete growth medium and the cells were then replated in a T175 culture dish at the appropriate dilution. All cell lines were routinely tested for mycoplasma contamination. Tissue type and mutational status of each cell line can be found in Table B.
(§2) AlphaLISA® SureFire® Ultra™ p-ERK ½ (Thr202/Tyr204) analysis was conducted on cells plated in 100 μL of complete RPMI-1640 growth medium in 96-well flat-bottomed transparent dishes (Costar) at a density indicated in Table C. Cells were maintained overnight at 37° C. under 5% CO2 before treatment with compounds' dilution series for one hour. The cell density in cells/cm^2 corresponds to cell number divided by the area of one well of a 96-well plate ([…]).
(§3) In a dilution series 100 μL/well of test substance dilution prepared in complete RPMI-1640 growth media was added to the cells. The dilution series is selected so that ten concentrations cover a range from 30 μM or 10 μM to 0.33 nM. If necessary, the initial concentration of 10 μM is increased to 100 μM or lowered to 1 μM (as in the case of A375 and NCIH1666 cells, which are generally more sensitive to the compounds) and further dilution is carried out accordingly. The final concentration of DMSO in the assay is set at 0.5%.
(§4) After treatment, media was removed, and cells were lysed in 50 μL of 1× AlphaScreen Ultra Lysis Buffer (Perkin Elmer). The AlphaLISA® SureFire® Ultra™ p-ERK ½ (Thr202/Tyr2O4) (PerkinElmer) reactions were performed with 5 μL of cell lysate according to the manufacturer's specifications in 384-well proxyplates (Perkin Elmer) followed by overnight incubation of the reactions at room temperature in a humidified chamber. After completion of the reactions, the signals were recorded on an EnVision plate reader (Perkin Elmer) using built in AlphaLISA® settings.
(§5) The effect of each compound dilution on the pERK signal was expressed in % inhibition and calculated as follows. An internal 100% inhibition control (1 μM trametinib, cat. No. HY-10999; MedChem Express; CAS No. 871700-17-3) was included in each plate and used as a measure of pERK background. First, the value obtained for trametinib was subtracted from each data point. The average of DMSO (vehicle) controls (set as 0% inhibition) was established and used to calculate % inhibition:
(§6) The ability of each compound to inhibit pERK signal was expressed as an IC50 value obtained by plotting the inhibition values for each data point of a dilution series and fitting the obtained curves using a log(agonist) versus response−variable slope (four parameters) function using GraphPadPrism (V7.0).
(§7) When present, paradoxical pERK induction is inferred from the negative % inhibition values observed in the pERK IC50 curves of a compound.

Calu6 pERK = details: Table D-2; for Calu6 pERK, value in parentheses, % inhibition: % Ymin of pERK IC50 curve; for IC50: read-out: Calu6 pERK IC50
Description: as §1, §2, §3, §4, §5, §6, §7

HCT116 pERK = details: for HCT116 (Ymin %): lowest value of the pERK IC50 curve; for HCT116 pERK, value in parentheses, % inhibition: % Ymin of pERK IC50 curve
Description: as §1, §2, §3, §4, §5, §6, §7

SW480 pERK = details: for SW480 (Ymin %): lowest value of the pERK IC50 curve; for SW480 pERK, value in parentheses, % inhibition: % Ymin of pERK IC50 curve
Description: as §1, §2, §3, §4, §5, §6, §7

SW620 pERK = details: read-out: SW620 pERK IC50; Table D-2
Description: as §1, §2, §3, §4, §5, §6, §7

IPC298 pERK = details: Table D-1; for IPC298 pERK, value in parentheses, % inhibition: % Ymin of pERK IC50 curve; for IC50: read-out: IPC298 pERK IC50
Description: as §1, §2, §3, §4, §5, §6, §7

Mewo pERK = details: Table D-2; for Mewo pERK, value in parentheses, % inhibition: % Ymin of pERK IC50 curve; for IC50: read-out: Mewo pERK IC50
Description: as §1, §2, §3, §4, §5, §6, §7

NCIH2087 pERK = details: read-out: NCIH2087 pERK IC50; Table D-2
Description: as §1, §2, §3, §4, §5, §6, §7

NCI-H2122 pERK = details: Table D-2; for NCI-H2122 pERK, value in parentheses, % inhibition: % Ymin of pERK IC50 curve; for IC50: read-out: NCI-H2122 pERK IC50
Description: as §1, §2, §3, §4, §5, §6, §7

HepG2 pERK = details: Table D-1; for HepG2 pERK, value in parentheses, % inhibition: % Ymin of pERK IC50 curve; for IC50: read-out: HepG2 pERK IC50
Description: as §1, §2, §3, §4, §5, §6, §7

[1] = read-out: HCT116 PERK IC50, Table 3, 1 h treatment
[2] = read-out: HCT116 pERK IC50, Table D-1
[3] = read-out: SW480 PERK IC50, Table 3, 1 h treatment
[4] = read-out: SW480 pERK IC50, Table D-2

| Compound | IC50 (Lovo pERK) [nM] | Calu6 pERK, value in parentheses, % inhibition (Calu6 pERK) | IC50 (Calu6 pERK) [nM] | HCT116 (Ymin %) (HCT116 pERK; Table 3) [%] | HCT116 pERK, value in parentheses, % inhibition (HCT116 pERK; Table D-1) | IC50 (HCT116 pERK; [1]) [nM] | IC50 (HCT116 pERK; [2]) [nM] | SW480 (Ymin %) (SW480 pERK; Table 3) [%] | SW480 pERK, value in parentheses, % inhibition (SW480 pERK; Table D-2) | IC50 (SW480 pERK; [3]) [nM] | IC50 (SW480 pERK; [4]) [nM] | IC50 (SW620 pERK) [nM] | IPC298 pERK, value in parentheses, % inhibition (IPC298 pERK) | IC50 (IPC298 pERK) [nM] | Mewo pERK, value in parentheses, % inhibition (Mewo pERK) | IC50 (Mewo pERK) [nM] | IC50 (NCIH2087 pERK) [nM] | NCI-H2122 pERK, value in parentheses, % inhibition (NCI-H2122 pERK) | IC50 (NCI-H2122 pERK) [nM] | HepG2 pERK, value in parentheses, % inhibition (HepG2 pERK) | further results |
| --- | --- | --- | --- | --- | --- | --- | --- | --- | --- | --- | --- | --- | --- | --- | --- | --- | --- | --- | --- | --- | --- |
| O=S(=O)(Nc1ccc(F)c(Nc2ncnc3cnc(-n4cnc5c(N6CCC(O)(C(F)(F)F)CC6)cccc54)nc23)c1F)c1cccc(Cl)c1Cl | 30 to 300 | (1) % | 30 to 300 | 7 | (7) % | < 500 | 30 to 300 | −14 | (−14) % | < 500 | 30 to 300 | 30 to 300 | (8) % | 30 to 300 | (−7) % | 30 to 300 | < 30 | (−4) % | > 300 | (34) % | IC50 (HepG2 pERK): < 30 nM |
| COc1ccc(S(=O)(=O)Nc2ccc(F)c(Nc3ncnc4cnc(-n5cc(S(=O)(=O)N(C)CCN(C)C)c6ccccc65)nc34)c2F)c(C)c1Cl | 30 to 300 | (−16) % | 30 to 300 | −7 | (−7) % | < 500 | > 300 | −5 | (−5) % | < 500 | 30 to 300 | 30 to 300 | (−4) % | 30 to 300 | (−12) % | 30 to 300 | < 30 | (−3) % | > 300 | (30) % | IC50 (HepG2 pERK): 30 to 300 nM |
